Binding of CDR-mutated scFvs to a peptide of the spike HR2 region

Antigen: PDVDLGDISGINAS, a 14-residue peptide of the SARS-CoV-2 spike HR2 region.

Ab-14 is the parent antibody, in scFv form: VH, then a (GGGGS)3 linker, then VL. The light chain is unchanged in all variants.
VH: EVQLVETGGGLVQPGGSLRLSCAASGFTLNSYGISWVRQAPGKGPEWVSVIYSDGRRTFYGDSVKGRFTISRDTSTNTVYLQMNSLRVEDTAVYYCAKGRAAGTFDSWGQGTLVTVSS
VL: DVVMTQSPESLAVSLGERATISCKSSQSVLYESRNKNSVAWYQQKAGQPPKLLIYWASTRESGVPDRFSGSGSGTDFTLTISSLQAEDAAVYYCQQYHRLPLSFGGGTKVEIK

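Phage display of a naive human antibody library on the peptide gave the parent. In library AAYL49, one, two or three CDR residues were substituted; doubles and triples were drawn at random. In AlphaSeq, yeast of one mating type display the scFv and yeast of the other type display the target. After mating in shaken culture at 30 °C for 16 h, diploids were selected and their barcode pairs sequenced. The ratio of observed to expected reads was calibrated, replicate by replicate, on BCL2-family standards whose Kd was known from biolayer interferometry. Mating was done three times.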

Each variant is given by its three heavy chain CDRs, as the data file delimits them; those of the parent are GFTLNSYGIS, VIYSDGRRTFYGDSVK, GRAAGTFDS. This list gathers variants with a substitution at I34 (VH, numbered from residue 1). Kd is apparent (estimated from mating counts) and averaged on the log scale over replicates with a signal. Smaller is tighter. An entry "nd" has no value in the source: the pair was not observed among the diploids in any replicate. This suggests poor binding but is not conclusive.

The variant GFTLNSYGWS | VIYSDGRRTFYGDMVK | GRAAGAFDS showed 2.4 µM (2 of 3 replicates; controls 1 of 9).
The variant RFTLNSYGFS | VIYSDGRRTFYGDSVQ | GRAAGTFDS showed 87 nM (3 of 3 replicates; controls 4 of 9).
The variant IFTLASYGFS | VIYSDGRRTFYGDSVK | GRAAGTFDS showed 81 nM (3 of 3 replicates; controls 1 of 9).
The variant GFTLNSYGLS | VIYSDGRRTFYGDSVH | GRAAGTQDS showed 170 µM (2 of 3 replicates; controls 4 of 9).
The variant GFTLNSYGMS | VIYSDGRRTFYGDSVK | IRAAGTDDS showed 310 µM (1 of 3 replicates; controls 2 of 9).
The variant GFTLSSYGES | VIYSDGRRTFYGDSVK | GRAAGTFDS showed nd (0 of 3 replicates; controls 1 of 9).
The variant GFTLNSYLPS | VIYSDGRRTFYGKSVK | GRAAGTFDS showed 1.2 µM (1 of 3 replicates; controls 2 of 9).
The variant GFTLNSYGVS | VCYSDFRRTFYGDSVK | GRAAGTFDS showed nd (0 of 3 replicates; controls 0 of 9).
The variant GFTLNSYGGS | VCYSDGQRTFYGDSVK | GRAAGTFDS showed 85 µM (1 of 3 replicates; controls 2 of 9).
The variant GFTLNSLGHS | VIYSDGRRTFYGDSVK | GRFAGTFDS showed nd (0 of 3 replicates; controls 1 of 9).
The variant GFTLNSYGRS | VIYSDGRRKFYGDSVK | GRQAGTFDS showed 35 nM (3 of 3 replicates; controls 1 of 9).
The variant GFTLNSYGRS | VIYSDGRRFFYGDSVK | ERAAGTFDS showed nd (0 of 3 replicates; controls 0 of 9).
The variant GFTLNSYGMK | VIYSDGRRTFYGDSVK | GREAGTFDS showed nd (0 of 3 replicates; controls 1 of 9).
The variant GFTLNSYGDS | VIYSDGRRTFYGDSVK | GRAAGVLDS showed nd (0 of 3 replicates; controls 0 of 9).
The variant GFTLNSYGHS | HIYSMGRRTFYGDSVK | GRAAGTFDS showed nd (0 of 3 replicates; controls 0 of 9).
The variant GFTLNSYGKS | VIHSDGRSTFYGDSVK | GRAAGTFDS showed 16 µM (1 of 3 replicates; controls 1 of 9).
The variant GFTLNSYGNS | VIYSDGRRTFYGDSVK | GRAAGTFDS showed nd (0 of 3 replicates; controls 2 of 9).
The variant GFTLNSYGLS | VIYSDGRRTFLGDSVK | GRAAGTFDS showed nd (0 of 3 replicates; controls 0 of 9).
The variant GFTANSYGWS | VSYSDGRRTFYGDSVK | GRAAGTFDS showed nd (0 of 3 replicates; controls 0 of 9).
The variant GHTLNSYGYS | NIYSDGRRTFYGDSVK | GRAAGTFDS showed 42 µM (1 of 3 replicates; controls 2 of 9).
The variant PFTLNSYGNS | VIYSKGRRTFYGDSVK | GRAAGTFDS showed 12 µM (1 of 3 replicates; controls 3 of 9).
The variant GFTLNSYGPS | VKYSDIRRTFYGDSVK | GRAAGTFDS showed 580 µM (1 of 3 replicates; controls 3 of 9).
The variant GFTLNSYGAS | VIYSDGRRTFAGDSVK | GRAAGTADS showed 65 µM (2 of 3 replicates; controls 0 of 9).
The variant GQTLNSYGHS | VIYSDGRRTFYGHSVK | GRAAGTFDS showed 4.2 µM (1 of 3 replicates; controls 1 of 9).
The variant GFTLNSYGFS | VHGSDGRRTFYGDSVK | GRAAGTFDS showed 140 µM (1 of 3 replicates; controls 3 of 9).
The variant GFTLNSYGFS | VSYSDGRFTFYGDSVK | GRAAGTFDS showed nd (0 of 3 replicates; controls 0 of 9).
The variant GFTLNSYGQS | VIYSDGRRTFYGDSVK | GRAWGPFDS showed 15 µM (1 of 3 replicates; controls 4 of 9).
The variant GFTLNSYGQS | VIYSDGRRTFYGDSWK | GRADGTFDS showed 12 µM (2 of 3 replicates; controls 3 of 9).
The variant GFWLNSYGSS | VIYSDGRRWFYGDSVK | GRAAGTFDS showed nd (0 of 3 replicates; controls 0 of 9).
The variant GFFLNSYGGS | VIYSDGRVTFYGDSVK | GRAAGTFDS showed nd (0 of 3 replicates; controls 0 of 9).
The variant GFTLNSYGGS | VIYSIGRRTFYDDSVK | GRAAGTFDS showed nd (0 of 3 replicates; controls 1 of 9).
The variant GFTLNSYGDS | VIYSDGRRTFYGNSVK | GRAAGTFDS showed nd (0 of 3 replicates; controls 0 of 9).
The variant GFTLNSYGRS | VIYSDGRRTFYGDSVK | YRIAGTFDS showed nd (0 of 3 replicates; controls 0 of 9).
The variant GFVLNSYGTS | VIYSDGRRTFYGDSVK | GRMAGTFDS showed nd (0 of 3 replicates; controls 0 of 9).
The variant GFTLNSYQLS | VIYSDGRRTAYGDSVK | GRAAGTFDS showed nd (0 of 3 replicates; controls 0 of 9).
The variant GFTLNSYGMS | VIYSDGRRGFYGDSVK | GRAQGTFDS showed nd (0 of 3 replicates; controls 0 of 9).
The variant GFTLNSYGVS | VIYSDGRRTWYGDSVK | GRAAGTFDS showed 620 nM (3 of 3 replicates; controls 1 of 9).
The variant GFTLNSYGKS | VIYSDGRRTFYGDSVK | GRHAGTFDS showed 2.8 µM (1 of 3 replicates; controls 2 of 9).
The variant GFTLNSYGAS | VIYSDGRRTFYGDSVK | GRAIGTFDS showed nd (0 of 3 replicates; controls 2 of 9).
The variant GFTLNSYGKS | VIYCDGRRCFYGDSVK | GRAAGTFDS showed nd (0 of 3 replicates; controls 0 of 9).
The variant GFTLNSYGFS | VIYSDGRRTFYGDSVK | GIAAGTFDS showed nd (0 of 3 replicates; controls 3 of 9).
The variant GFTLNFYGTS | VIYSDGRRTFYGDSVK | GEAAGTFDS showed 22 µM (2 of 3 replicates; controls 3 of 9).

Extract of 7 entries:

CDR-H1	CDR-H2	CDR-H3	apparent Kd	replicates with signal	control signals
PFTLNSYGNS	VIYSKGRRTFYGDSVK	GRAAGTFDS	12 µM	1 of 3	3 of 9
GFFLNSYGGS	VIYSDGRVTFYGDSVK	GRAAGTFDS	nd	0 of 3	0 of 9
GFTLNSYGAS	VIYSDGRRTFAGDSVK	GRAAGTADS	65 µM	2 of 3	0 of 9
GFTLNSYGRS	VIYSDGRRKFYGDSVK	GRQAGTFDS	35 nM	3 of 3	1 of 9
GFTLNSYGLS	VIYSDGRRTFYGDSVH	GRAAGTQDS	170 µM	2 of 3	4 of 9
GFTLNSYGMK	VIYSDGRRTFYGDSVK	GREAGTFDS	nd	0 of 3	1 of 9
IFTLASYGFS	VIYSDGRRTFYGDSVK	GRAAGTFDS	81 nM	3 of 3	1 of 9

In this assay the parent's reference entry averaged 4.4 nM; its copy inside this library read 13 µM (one replicate of three). Background: pairings of library AAYL49 with three empty control strains gave a value in 15% of cases (median 11 µM, 5th percentile 680 nM). Values in that range, when seen in few replicates, are hard to tell from nonspecific mating. For each scFv, signals with the empty controls are counted beside the result.

Source: Engelhart et al. 2022 (doi:10.1038/s41597-022-01779-4), MIT Lincoln Laboratory and A-Alpha Bio; data file from the FLAb repository.